Among the data in PubChem BioAssay AID861 (The Scripps Research Institute Molecular Screening Center, 2007) are inhibition values, retold here.

Protein sequences, listed by entry. Tags and fused reporters are not part of them.
UniProt O00206, whole entry: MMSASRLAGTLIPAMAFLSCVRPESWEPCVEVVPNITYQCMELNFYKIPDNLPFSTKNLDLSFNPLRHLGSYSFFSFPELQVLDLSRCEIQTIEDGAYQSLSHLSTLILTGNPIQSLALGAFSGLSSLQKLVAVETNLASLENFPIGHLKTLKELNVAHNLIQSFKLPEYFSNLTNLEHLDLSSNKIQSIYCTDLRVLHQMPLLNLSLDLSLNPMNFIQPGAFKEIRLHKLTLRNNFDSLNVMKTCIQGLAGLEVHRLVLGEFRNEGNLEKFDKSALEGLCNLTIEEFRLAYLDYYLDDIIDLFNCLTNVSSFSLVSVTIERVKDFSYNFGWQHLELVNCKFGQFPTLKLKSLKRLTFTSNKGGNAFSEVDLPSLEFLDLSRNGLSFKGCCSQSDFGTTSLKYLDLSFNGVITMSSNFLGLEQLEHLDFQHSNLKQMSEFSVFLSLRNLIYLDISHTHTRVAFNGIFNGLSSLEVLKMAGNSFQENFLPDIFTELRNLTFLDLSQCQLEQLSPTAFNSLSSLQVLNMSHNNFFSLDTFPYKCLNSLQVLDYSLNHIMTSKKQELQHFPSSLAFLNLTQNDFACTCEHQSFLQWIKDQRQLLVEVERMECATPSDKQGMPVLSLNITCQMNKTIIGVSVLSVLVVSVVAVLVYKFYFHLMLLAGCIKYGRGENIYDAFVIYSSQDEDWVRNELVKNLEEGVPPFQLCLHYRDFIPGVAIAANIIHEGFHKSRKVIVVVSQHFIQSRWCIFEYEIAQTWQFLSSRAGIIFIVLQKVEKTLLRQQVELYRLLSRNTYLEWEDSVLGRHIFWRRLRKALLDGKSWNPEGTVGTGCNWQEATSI

Molecules are shown by their SMILES. The entries are a selection whose mix differs from that of the whole data set. Activity calls are given as the source filed them. No stated cut-off is given here; in the data, active means inhibition above about 25%; inactive means the rest.

This test has as its target Toll-like receptor 4 (Homo sapiens) + Myeloid differentiation primary response protein MyD88 (Homo sapiens) (UniProt O00206+Q99836). Put plainly: disruptors of TLR4 binding to MyD88 – cell-based, HeLa CL3-4, BLA complementation, FRET ratio, primary screen (AID 861).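 Further: 0% = vehicle and 100% = reference inhibitor.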 Conditions: HeLa CL3-4 TLR4/MyD88 BLA complementation, at 8.4 µM, stronger effect = higher value.
For the compound `CC1=NCCc2c1[nH]c1ccccc21.O=[N+]([O-])c1cc([N+](=O)[O-])c(O)c([N+](=O)[O-])c1`, the inhibition (commonly the change of the read-out against control, counted positive when it falls) was inactive: 7.78%.

As for `CCOC(=O)c1ccc(NP(C)(=O)Oc2cc(C)cc(C)c2)cc1` (centres undefined), the inhibition was inactive: 9.24%.

For the compound `Cc1cc(C)cc(OP(C)(=O)Nc2ccc(C)cc2C)c1` (centres undefined), the inhibition was inactive: 10.7%.

Turning to `Cc1ccc(C)c(NP(C)(=O)Oc2ccccc2)c1` (centres undefined), the inhibition was inactive: -7.31%.

In the case of `Cc1cc(C)cc(OP(C)(=O)Nc2ccccn2)c1` (centres undefined), the inhibition was inactive: 3.5%.

Consider `CP(=O)(Nc1cccc(Br)c1)Oc1ccccc1` (centres undefined), for which the inhibition is inactive: 8.03%.

For `O=[N+]([O-])c1cc([N+](=O)[O-])c(-n2nnc3ccccc32)c([N+](=O)[O-])c1`, the inhibition was inactive: 8.96%.

For the compound `Cc1nc2ccc3ccccc3c2s1.O=[N+]([O-])c1cc([N+](=O)[O-])c(O)c([N+](=O)[O-])c1`, the inhibition is inactive: -1.18%.

With `CCCOc1ccc(NP(C)(=O)Oc2ccc(Cl)cc2)cc1` (centres undefined), the inhibition was inactive: -3.27%.

For `CP(=O)(Nc1ccc(SC(F)(F)F)cc1)Oc1ccccc1` (centres undefined), the inhibition was inactive: -5.57%.

In the case of `CN1CCCCC1COC(=O)C1(O)c2ccccc2CCc2ccccc21` (centres undefined), the inhibition was inactive: -14.7%.

Consider `COc1ccccc1OP(C)(=O)Nc1c(C)cccc1C` (centres undefined), for which the inhibition was inactive: 7.26%.

`CP(=O)(Nc1ccccc1Br)Oc1ccccc1` (centres undefined): the inhibition is inactive: -6.41%.

For `COc1ccccc1OP(C)(=O)Nc1ccccc1` (centres undefined), the inhibition was inactive: -1.76%.

For `CP(=S)(Nn1cnnc1)Oc1ccccc1` (centres undefined), the inhibition is inactive: -14.3%.

On to `CP(=O)(NC(=O)Nc1ccccc1)Oc1ccccc1` (centres undefined), for which the inhibition was inactive: -4.57%.

For `Cc1cc(C)cc(OP(C)(=O)Nc2ccc(SC(F)(F)F)cc2)c1` (centres undefined), the inhibition is inactive: -11.7%.

With `Cc1cccc(C)c1OP(C)(=O)Nc1ccc(SC(F)(F)F)cc1` (centres undefined), the inhibition is inactive: -10.8%.

`CP(=O)(Oc1ccccc1)OC(c1ccccc1)C(F)(F)F` (centres undefined): the inhibition is inactive: 5.18%.

`CP(=O)(Nc1ccccn1)Oc1ccc(Cl)cc1` (centres undefined): the inhibition was inactive: -13.1%.

Take `CCOC(=O)c1ccc(NP(C)(=O)Oc2ccc(OC)cc2)cc1` (centres undefined): the inhibition was inactive: 9.86%.

On to `CCOP(C)(=S)SCC(=O)NC(C)C(=O)O` (centres undefined), for which the inhibition was inactive: -5.4%.

In the case of `CCN(CC)CCCOC(=O)C(O)(c1ccccc1)c1ccccc1`, the inhibition was inactive: 10.1%.

For `O=[N+]([O-])c1ccc2c(c1)C=Nc1ccccc1O2`, the inhibition is inactive: -3.69%.

For `CC(C)(C)c1ccc(OP(C)(=O)Nc2ccc(SC(F)(F)F)cc2)cc1` (centres undefined), the inhibition was inactive: -7.31%.

For the compound `Cc1cccc(C)c1OP(C)(N)=O` (centres undefined), the inhibition is inactive: 7.26%.

On to `Cc1cc(C)cc(OP(C)(N)=O)c1` (centres undefined), for which the inhibition was inactive: -2.89%.

For the compound `COc1ccccc1OP(C)(=O)Nc1cc(Cl)ccc1C` (centres undefined), the inhibition is inactive: -15.5%.

Turning to `COc1ccc(OP(C)(=O)Nc2cccc(F)c2)cc1` (centres undefined), the inhibition was inactive: 10.7%.

In the case of `COc1ccccc1OP(C)(=O)Nc1ccc(C)cc1` (centres undefined), the inhibition is inactive: -6.03%.

On to `Cc1ccc(NP(C)(=O)Oc2ccccc2)c(C)c1` (centres undefined), for which the inhibition was inactive: -14.5%.

With `CCOC(=O)c1ccc(NP(C)(=O)Oc2ccccc2)cc1` (centres undefined), the inhibition is inactive: -12%.

Take `COc1ccccc1OP(C)(=O)Nc1ccc(C)c(C)c1` (centres undefined): the inhibition was inactive: 6.12%.

As to `COc1ccc(OP(C)(=O)Nc2ccccc2Br)cc1` (centres undefined), the inhibition is inactive: -3.94%.

Turning to `Cc1cc(C)cc(OP(C)(=O)Nc2cccc(C(F)(F)F)c2)c1` (centres undefined), the inhibition was inactive: -5.35%.

Take `CP(=O)(Nc1ccc(Cl)cc1Cl)Oc1ccccc1` (centres undefined): the inhibition was inactive: 1.89%.

For the compound `CP(=O)(OCCOc1ccccc1)OCCOc1ccccc1`, the inhibition is inactive: -3.78%.

In the case of `Cc1nc2ccc3ccccc3c2o1.O=[N+]([O-])c1cc([N+](=O)[O-])c(O)c([N+](=O)[O-])c1`, the inhibition was inactive: -3.75%.

As to `COc1ccc(OP(C)(=O)Nc2ccccn2)cc1` (centres undefined), the inhibition was inactive: 1.3%.

Turning to `CN(C)CCOC(=O)C(O)(c1ccccc1)C1CCCC1` (centres undefined), the inhibition is inactive: -1.99%.

For `CP(=O)(Nc1ccccn1)Oc1ccccc1` (centres undefined), the inhibition is inactive: 5.45%.

With `COc1ccccc1OP(C)(=O)Nc1ccc(C)cc1C` (centres undefined), the inhibition was inactive: 0.68%.

Take `Cc1c(NP(C)(=O)Oc2ccc(C(C)C)cc2)c(=O)n(-c2ccccc2)n1C` (centres undefined): the inhibition was inactive: 11.8%.

Take `O=[N+]([O-])c1cc([N+](=O)[O-])c(Nc2ccccn2)c([N+](=O)[O-])c1`: the inhibition is inactive: 7.55%.

For the compound `COc1ccccc1OP(C)(=O)Nc1c(C)n(C)n(-c2ccccc2)c1=O` (centres undefined), the inhibition is inactive: -5.95%.

Regarding `CP(=O)(Oc1ccccc1)N1CCOC1=O` (centres undefined), the inhibition is inactive: 3.22%.

As for `CCc1ccc(OP(C)(=O)Nc2cccnc2)cc1` (centres undefined), the inhibition is inactive: 1.29%.

In the case of `CCN(CC)CC(O)COC(=O)C(O)(c1ccccc1)C1CCCCC1` (centres undefined), the inhibition was inactive: 9.36%.

As to `COc1ccc(OP(C)(=O)Nc2ccc(Br)cc2)cc1` (centres undefined), the inhibition was inactive: -1.28%.

For `CN(C)C(=O)c1c([N+](=O)[O-])cc([N+](=O)[O-])cc1[N+](=O)[O-]`, the inhibition was inactive: 3.86%.

For `COc1ccccc1OP(C)(=O)Nc1ccccc1Br` (centres undefined), the inhibition was inactive: -1.73%.

Take `CC(C)(C)c1ccc(OP(C)(=O)O)cc1`: the inhibition was inactive: 5.81%.

Regarding `CP(=O)(Nc1ccc(Cl)cc1)Oc1ccc(F)cc1` (centres undefined), the inhibition is inactive: -3.11%.

`CCOC(=O)c1ccc(NP(C)(=O)Oc2ccc(Cl)cc2)cc1` (centres undefined): the inhibition was inactive: 4.96%.

Take `CP(=O)(OC12CC3CC(CC(C3)C1)C2)OC12CC3CC(CC(C3)C1)C2`: the inhibition is inactive: 4.15%.

With `CN(C)CCOC(=O)C(O)(c1ccccc1)C1CCCCC1` (centres undefined), the inhibition is inactive: 15.9%.

Regarding `COc1ccc(NP(C)(=O)Oc2ccccc2OC)cc1` (centres undefined), the inhibition is inactive: -10.7%.

Regarding `COc1ccc(OP(C)(=O)Nc2cccc(Br)c2)cc1` (centres undefined), the inhibition was inactive: 6.69%.

Turning to `O=[N+]([O-])c1cc([N+](=O)[O-])c(NCC2CCS(=O)(=O)C2)c([N+](=O)[O-])c1` (centres undefined), the inhibition is inactive: 0.87%.

With `CCOP(C)(=S)SCC(=O)NC(C)(CC)C(=O)O` (centres undefined), the inhibition is inactive: -10.6%.

In the case of `Cc1ccccc1NP(C)(=O)Nc1ccccc1C`, the inhibition is inactive: -6.84%.

As to `CP(=O)(Nc1ccc2c(c1)OCCO2)Oc1ccccc1` (centres undefined), the inhibition is inactive: 8.03%.

As to `CP(=O)(Nc1ccccc1F)Oc1ccccc1` (centres undefined), the inhibition was inactive: 3.51%.

With `CC(C)c1ccc(OP(C)(=O)Nc2ccc(SC(F)(F)F)cc2)cc1` (centres undefined), the inhibition was inactive: 5.88%.

For `O=C(OCCN1CCN(CCOCc2ccccc2)CC1)C(O)(c1ccccc1)c1ccccc1`, the inhibition was inactive: 3.38%.

Turning to `CCOC(=O)c1ccc(NP(C)(=O)Oc2ccc(F)cc2)cc1` (centres undefined), the inhibition is inactive: -8.9%.

On to `COc1ccc(OP(C)(=O)Nc2ccc(SC(F)(F)F)cc2)cc1` (centres undefined), for which the inhibition was inactive: -7.48%.

For the compound `CP(=O)(Nc1ccccc1)Oc1ccc(F)cc1` (centres undefined), the inhibition was inactive: 0.66%.

As for `CCN(CC)CCCOC(=O)C(O)(c1ccccc1)C1CCCCC1` (centres undefined), the inhibition was inactive: -9.83%.
